Measured values published in PubChem BioAssay (EPA / NIEHS).
The list shows a part of the results, in another mix than the full data. Activity calls are given as the source filed them. Rule for the calls: active = hit-call score of the fitted dose curve at least 0.9, where 1 is the maximum; inactive = score below 0.9.

Assay: ATG_GATA_CIS: Attagene CIS-FACTORIAL HepG2 Assay for human GATA Binding Protein (AID 2282944)
Details: HepG2 GATA cis-element reporter, Attagene multiplex mRNA; actives raise or lower the signal
Protocol: ATG_CIS is a cell-based, multiplexed-readout assay that uses HepG2, a human liver cell line, with measurements taken at 24 hours after chemical dosing in a 24-well plate.ATG_GATA_CIS is one of 52 assay component(s) measured or calculated from the ATG_CIS assay. It is designed to make measurements of mRNA induction, a form of inducible reporter, as detected with fluorescence intensity signals by Reverse transcription polymerase chain reaction (RT-PCR) and Capillary electrophoresis technology.Data from the assay component ATG_GATA_CIS was analyzed into 1 assay endpoint. This assay endpoint, ATG_GATA_CIS, was analyzed with bidirectional fitting relative to DMSO as the negative control and baseline of activity. Using a type of inducible reporter, measures of mRNA for gain or loss-of-signal activity can be used to understand the reporter gene at the transcription factor-level as they relate to the gene GATA1. Furthermore, this assay endpoint can be referred to as a primary readout, because this assay has produced multiple assay endpoints where this one serves a reporter gene function. To generalize the intended target to other relatable targets, this assay endpoint is annotated to the dna binding intended target family, where the subfamily is GATA proteins.
Human liver HepG2 cells are transiently transfected with multiple reporter transcription units (MRTUs) in 6-well plates using FuGene 6 reagent (Roche; 3 ml FuGene/1 mg DNA). The MRTU constructs are regulated by a cis-regulating element (promoter). […] A major difference between the CIS and TRANS system is that in CIS activities of endogenous TFs are measured, whereas the TRANS assay evaluates changes in activities of exogenous, chimeric NR-Gal4 proteins. […] At the end of 24 hour incubation, total RNA was isolated using TriZol reagent (Invitrogen). The isolated RNA is then reverse-transcribed using oligo(dT) primer and Mo-MLV reverse transcriptase (Invitrogen) with DNAse I (Ambion) treatment for 30 min. The one-tenth of the produced cDNA was amplified by PCR using Taq DNA polymerase (Invitrogen) and two reporter sequence-specific primers. The PCR products were fluorescently labeled by primer extension with 6-arboxyfluorescein (6-FAM) 5'-labeled reporter sequence-specific primer (2 min at 95 C, 20 s at 68 C and 10 min at 72 C) and these products were digested with 5U of HpaI (New England Biolabs) for 2h at 37 C. The fragments were purified using Qiaquick PCR columns (Qiagen), analyzed on an ABI 3130xL genetic analyzer (Applied Biosystems) with peak positions identified by using a set of X-rhodamine (ROX)-labeled MapMarker1000 molecular weight standards (BioVentures). The raw capillary electrophoresis data was processed using Attagraph software (Attagene).

Row | SMILES | outcome
1 | O=[N+]([O-])c1cccc([N+](=O)[O-])c1 | inactive
2 | N#CBr | inactive
3 | Cc1ccc([N+](=O)[O-])cc1[N+](=O)[O-] | inactive
4 | Cc1cccc([N+](=O)[O-])c1[N+](=O)[O-] | inactive
5 | CC(C)OP(C)(=O)OC(C)C | inactive
6 | O=[N+]([O-])OCC(CO[N+](=O)[O-])(CO[N+](=O)[O-])CO[N+](=O)[O-] | inactive
7 | COP(C)(=O)OC | inactive
8 | Cc1ccc([N+](=O)[O-])c([N+](=O)[O-])c1 | inactive
9 | CN(C)CCCl | inactive
10 | Cc1c([N+](=O)[O-])cccc1[N+](=O)[O-] | inactive
11 | COc1ccc([N+](=O)[O-])cc1[N+](=O)[O-] | inactive
12 | CC(C)N(CCO)C(C)C | inactive
